In US20200308582A1, “KCNK3-BASED GENE THERAPY OF CARDIAC ARRHYTHMIA” (UNIVERSITÄT HEIDELBERG, priority 2017, published 2020):

Tested on: TASK-1 protein
Assay: TASK-1 protein immunoblot in neonatal rat cardiomyocytes infected with AAV6 carrying siRNA
Details: siRNA sequences 1-3 compared, GAPDH loading control

siRNA3: siRNA sequence 3 directed against the porcine orthologue of TASK-1, delivered by AAV6 in a pri-miR155 scaffold (guide ACGTGGCCTTTAGCTTCGTCT)
downregulation of TASK-1 protein levels (in vitro efficacy): Highest in vitro efficacy
downregulation of TASK-1 protein levels (in vitro efficacy) (listed as siRNA sequence number 3): best results
